Data: patent US6200963A, “Aryl sulfonic acids as FSH antagonists” (American Home Products Corporation, priority 2000, dated 2001)

How the values were obtained:
[1] = molecular target: T1, FSH receptor (Homo sapiens, UniProt P23945); assay: In Vitro Bio-assay of Agonists and Antagonists to the FSH Receptor (cAMP accumulation in CHO-3D2 cells); assay type: cell-based; set-up: expressed in transfected cells; host or cells: CHO-3D2 cells; settings: agonist mode, reference
T1 sequence (P23945 18-695): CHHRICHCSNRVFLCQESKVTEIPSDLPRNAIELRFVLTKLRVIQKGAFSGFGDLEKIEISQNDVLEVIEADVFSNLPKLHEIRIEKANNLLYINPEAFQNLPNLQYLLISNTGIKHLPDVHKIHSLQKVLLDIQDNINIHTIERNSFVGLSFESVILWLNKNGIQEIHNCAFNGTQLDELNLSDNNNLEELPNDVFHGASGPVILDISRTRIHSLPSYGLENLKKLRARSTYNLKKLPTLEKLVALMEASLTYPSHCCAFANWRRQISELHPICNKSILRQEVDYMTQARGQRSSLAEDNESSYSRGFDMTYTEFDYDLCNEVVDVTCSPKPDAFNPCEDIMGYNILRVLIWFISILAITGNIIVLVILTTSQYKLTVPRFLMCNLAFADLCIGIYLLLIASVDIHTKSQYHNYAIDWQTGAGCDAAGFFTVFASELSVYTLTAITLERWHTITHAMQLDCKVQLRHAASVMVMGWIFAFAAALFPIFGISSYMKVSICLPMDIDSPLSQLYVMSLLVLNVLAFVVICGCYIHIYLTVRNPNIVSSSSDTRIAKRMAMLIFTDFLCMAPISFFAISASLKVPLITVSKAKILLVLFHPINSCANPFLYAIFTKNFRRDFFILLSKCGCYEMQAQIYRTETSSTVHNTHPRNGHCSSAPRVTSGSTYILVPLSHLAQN
Excerpt: In Vitro Bio-assay of Agonists and Antagonists to the FSH Receptor
The following procedure was used as a screening assay to verify in vitro efficacy of compounds found to bind to the FSH receptor in the binding assay.
Compound Vehicle: Stock compounds were solubilized in an appropriate vehicle preferably PBS/0.1% Bovine Serum Albumin (BSA; Sigma Chemical Co., St. Louis, Mo.). The compounds were subsequently diluted in sterile assay medium (Optimem (Gibco/BRL, Grand Island, N.Y.)/0.1% BSA) prior to use in the bio-assay.
Preparation of CHO-3D2 Cells; CHO-3D2 cells were plated into 96-well Nunc tissue culture plates at a density of 30,000 cells/well in DMEM/F12 medium (Gibco/BRL, Grand Island, N.Y.) supplemented with 5% Fetal Bovine Serum (Hyclone, Fetal Clone II), 2 mM L-glutamine and penicillin/streptomycin (100 U/mL). Cells were plated one day prior to performing the bio-assay.
Assay: On the day of assay, the wells were washed two times with 100 ul/well of pre-warmed (37 deg C.) assay medium. After aspirating the second wash, an additional 100 ul of assay medium was added to each well and the cells pre-incubated for 30-45 minutes at 37 deg C. in a humidified incubator with 5% CO2/95% air. The cells were then challenged with varying dilutions of the test substance(s) in a 50 ul total incubation volume in assay medium for 30 minutes at 37 deg C in the humidified incubator. The challenge was terminated by the addition of 50 ul of 0.2 N HCl to each well. cAMP accumulation in the medium was measured by radioimmunoassay.
Experimental Groups: In the 96-well format, the plate is organized into 12 columns each containing 8 rows of wells. The plate was split in half to test a single compound in both agonist and antagonist mode on the same plate.
For agonist mode, compounds were tested using 5 different concentrations in a dose-response paradigm using one column as a control (challenge medium alone) in agonist mode.
For antagonist mode, compounds were tested in a dose-response paradigm versus a constant level of purified human FSH (the ED20 (1.85 ng/mL); previously calculated during characterization of the bio-assay). The 96-well format allowed for the capability to test 4 columns of compound, using one of the remaining columns for negative control (challenge medium alone) and the other remaining column for ampositive control (ED20 of FSH alone). […]
Analysis of Results: cAMP accumulation was expressed as fmol/mL. cAMP accumulation in agonist mode, or the ability of the compound to inhibit hFSH-induced cAMP accumulation in antagonist mode was compared to the appropriate negative and positive controls. Data were analyzed statistically by analysis of variance and significant differences between treatments and control determined by Dunnett's test. […]

[2] = molecular target: T2, FSH receptor (Rattus norvegicus, UniProt P20395); assay: In Vitro Bioassay of Agonists and Antagonists to the FSH Receptor using Primary Cultures of Rat Granulosa (estradiol secretion); assay type: cell-based; set-up: immature female Sprague-Dawley rats (Charles River Laboratories, Wilmington, Mass.) were used as donors for ovarian granulosa cells; endogenous in cells; host or cells: primary ovarian granulosa cells of immature female Sprague-Dawley rats; settings: previously calculated during characterization of the bioassay
T2 sequence (P20395 18-692): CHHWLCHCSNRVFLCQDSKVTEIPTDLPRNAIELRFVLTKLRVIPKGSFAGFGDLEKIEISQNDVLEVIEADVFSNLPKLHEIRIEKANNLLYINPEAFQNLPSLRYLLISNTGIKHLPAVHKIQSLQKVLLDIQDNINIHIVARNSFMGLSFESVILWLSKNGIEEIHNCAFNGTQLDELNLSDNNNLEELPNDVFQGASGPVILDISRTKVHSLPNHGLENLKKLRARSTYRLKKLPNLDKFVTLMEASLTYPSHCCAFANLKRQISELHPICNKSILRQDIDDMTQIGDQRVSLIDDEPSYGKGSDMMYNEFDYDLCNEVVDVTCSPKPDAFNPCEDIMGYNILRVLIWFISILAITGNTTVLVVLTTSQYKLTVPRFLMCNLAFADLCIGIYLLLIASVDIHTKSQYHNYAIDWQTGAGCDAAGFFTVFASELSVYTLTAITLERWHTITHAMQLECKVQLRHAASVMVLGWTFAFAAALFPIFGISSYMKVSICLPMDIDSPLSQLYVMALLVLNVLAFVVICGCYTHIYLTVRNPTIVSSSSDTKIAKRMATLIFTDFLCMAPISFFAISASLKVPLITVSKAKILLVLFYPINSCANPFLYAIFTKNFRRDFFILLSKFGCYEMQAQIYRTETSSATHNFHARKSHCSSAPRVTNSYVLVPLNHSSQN
Excerpt: In Vitro Bioassay of Agonists and Antagonists to the FSH Receptor using Primary Cultures of Rat Granulosa
The following procedure was used as a low-throughput functional screening assay to study in vitro efficacy of compounds found to be agonists or antagonists of the FSH receptor.
Materials and Methods: Reagents
Compound Vehicle: Stock compounds were solubilized in an appropriate vehicle, preferably PBS (phosphate buffered saline) or DMSO (dimethyl sulfoxide), at a concentration of 0.1 M. The compounds were subsequently diluted in sterile challenge medium [McCoy's 5A medium (Gibco/BRL, Grand Island, N.Y.) supplemented with 5 mg/mL insulin, 5 mg/mL transferrin, 5 ng/mL sodium selenite (ITS, Sigma Chemical Co., St. Louis, Mo.), 146 mg/mL L-glutamine, 100 nM testosterone, 100 nM DES and 100 U/mL penicillin/10 mg/mL streptomycin/250 ng/mL amphotericin B (antibiotic/antimycotic, Gibco) and 0.1% bovine serum albumin (Sigma, St. Louis, Mo.)] prior to use in the assay. […]
Preparation of Granulosa Cells: Twenty-four day-old immature female Sprague-Dawley rats (Charles River Laboratories, Wilmington, Mass.) were used as donors for ovarian granulosa cells. […] After the final spin, the cells were resuspended by gentle trituration in 25 mL serum-free medium, an aliquot counted in a hemocytometer and viability estimated by trypan blue exclusion. […]

[3] = four-parameter logistic equation

hFSH: purified or recombinant human FSH was tested, and the cAMP accumulation ([1]; in words) was “dose-dependent increase in cAMP accumulation”, the “apparent ED20, cAMP accumulation” value [1, 3] was 1.85 ng/mL and the “apparent ED50, cAMP accumulation” value [1, 3] was 6.03 ng/mL. The “apparent ED80, cAMP accumulation” value [1, 3] was 22.55 ng/mL and the “ED50 of FSH, estradiol secretion” value [2] was 0.5 ng/mL.
